Experimental data published in patent publication US20100330604A1, “QUANTIFICATION OF CHANGES IN THE DEGREES OF ORDER OF CELLULAR AND VIRAL MEMBRANES AND APPLICATIONS TO DIAGNOSIS, TREATMENT AND DRUG SCREENING” (priority 2007, published 2010).

Tested on: platelets
Assay: Shear Induced Platelet activation (SIPA): high Rf platelet subpopulation
Format: cell-based
Conditions: pre-incubation of platelets to block actin polymerization

Substance: latruncullin B
- generation of the high Rf platelet population during the shear treatment: abrogated
